Converted amounts (≈) assume the structure as drawn. A value given as a limit tells only on which side of the number the result lay.

The subject of test [1] is K. pneumoniae Kp9. The test is described as follows: FaAST (FDAA metabolic labeling). The test is classed as cell-based, Klebsiella pneumoniae. The settings on record: unit assumed. As to the method:
(§1) The specific experimental steps are as follows: • 1. Take the colony to be tested that has been cultured overnight on the plate and fully mix it in normal saline to make a uniform bacterial solution. Dilute it into CAMHB medium to make a bacterial solution with OD600=0.05. • 2. Add 45 μl antibiotic solutions to be tested of different concentrations to 96-well plates (see Table 3 for antibiotic concentration gradient settings). • 3. Add 50 μl of bacterial solution prepared in Step 1 to the 96-well plate and mix well. • 4.5 μl of 10 mM Cy5-DAA probe was added to each well (final concentration was 0.15 mM, and its structure was shown in FIG. 1). After mixing, the probe was incubated for 2 hours in the dark. • 5. After dilution with 200 μl PBS solution, the fluorescence intensity of each sample was detected by flow cytometry.

Test [2] relates to alveolar lavage fluid sample 0204, A. baumannii. Put plainly: BMD susceptibility test of patient alveolar lavage fluid. The test is classed as cell-based, Acinetobacter baumannii. Conditions: unit assumed. From the text: The results of antimicrobial susceptibility test of alveolar lavage fluid of seven patients using FDAA and BMD methods are shown in the following table. The drug-resistant bacteria are shown in bold.

Test [3] has as its system A. baumannii Ab16. Put plainly: BMD susceptibility test. The test is classed as cell-based, Acinetobacter baumannii. The settings on record: unit assumed.
Test [4] concerns A. baumannii Ab16. The test is described as follows: FaAST (FDAA metabolic labeling). The test is classed as cell-based, Acinetobacter baumannii. Conditions: unit assumed. Here is the method:
as §1

Test [5] deals with K. pneumoniae Kp9. The test is described as follows: BMD susceptibility test. The settings on record: unit assumed. The test is classed as cell-based, Klebsiella pneumoniae.
In test [6] the test system is Klebsiella pneumoniae KPN9. The test is described as follows: VITEK drug sensitivity test. Conditions: unit assumed. The test is classed as cell-based.
In test [7] the test system is Klebsiella pneumoniae KPN9. The test is classed as cell-based. The settings on record: DAA-Cy5-2 probe. As to the method: With reference to the flow chart of the rapid detection method of antimicrobial susceptibility test based on FDAA metabolic markers shown in FIG. 3, FDAA is used for the detection of antimicrobial susceptibility test of alveolar lavage fluid. The specific experimental steps are as follows: • 1. Mix bronchoalveolar lavage fluid (BALF, 10 ml) of patients with hospital acquired pneumonia with cation regulated broth medium (CAMHB, 10 ml) of twice the concentration to prepare the bacterial fluid to be tested. • 2. Add 45 μl antibiotic solutions of different concentrations to the 96-well plate separately (see Table 1 for antibiotic concentration gradient settings). • 3. Add 50 μl of the bacterial solution prepared in step 1 to the 96-well plate and mix well. • 4. Add 5 μl of 10 mM Cy5-DAA probe (final concentration 0.15 mM, see FIG. 1 for its structure) into each well, mix well, and then cultivate in dark for 2 hours. • 5. Add 200 μl PBS solution for dilution, and then use flow cytometry to detect the fluorescence intensity of each sample. The flow detection results are shown in FIG. 11-13 (imipenem: IPM; Levofloxacin: LEV; Tigecycline: TGC).
The specific steps are the same as in Example 5. […] The minimum inhibitory concentration of antibiotics was obtained according to the fluorescence signal intensity of flow detection, and the statistical results are shown in Table 7.

For the molecule `C[C@@H](O)[C@H]1C(=O)N2C(C(=O)O)=C(SCCN=CN)C[C@H]12` [Imipenem, imipenem], the FaAST (MIC) in test [1] came out at 256 mg/L.
`CC(=O)NC[C@H]1CN(c2ccc(N3CCOCC3)c(F)c2)C(=O)O1` [Linezolid, linezolid]: the BMD (MIC) in test [2] was determined as 256 mg/L.
For the molecule `NCC[C@H](O)C(=O)N[C@@H]1C[C@H](N)[C@@H](O[C@H]2O[C@H](CN)[C@@H](O)[C@H](O)[C@H]2O)[C@H](O)[C@H]1O[C@H]1O[C@H](CO)[C@@H](O)[C@H](N)[C@H]1O` [Amikacin], the BMD (MIC) in test [3] and in test [5] was greater than 256 mg/L throughout. The FaAST (MIC) in test [4] and in test [1] was greater than 256 mg/L in each case. In test [6], this molecule displayed an MIC, VITEK of 256 mg/L (≈ 437 µM). This molecule displayed an MIC, FaAST in test [7] of 256 mg/L (≈ 437 µM).

These data come from US20240240224A1, “FLUORESCENT D-TYPE AMINO ACID METABOLISM MARKER-BASED METHOD FOR DETECTING ANTIBACTERIAL DRUG SENSITIVITY TEST” (priority 2020, published 2024).
